Values of other authors in US6562757B1, “Plant-protection treatment of plants and compositions which can be used for this purpose” (Cerexagri S.A., priority 1999, dated 2003).

Details: pH 7

## cuprous oxide
  amount of soluble aqueous copper (Cu2+(aq)) released: 1 to 10 mg/L
